# Ab-14 heavy chain CDR variants: yeast mating affinities

Target: peptide PDVDLGDISGINAS, taken from heptad repeat 2 (HR2) of SARS-CoV-2 spike.

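The parent was found by panning a naive human phage display library on the peptide. These sequences belong to a second round, designed from the earlier measurements on random variants of the parent. Their group label is 14H_En_HC (En: ensemble of fine-tuned language models; HC: hill climbing; a sequence that several methods proposed may carry one label only). The assay is AlphaSeq: two haploid yeast populations carry antibody and antigen on their surface. Pairs that bind mate more often; barcode pairs of the diploids are counted by sequencing. Each replicate has its own calibration line, from reference interactions of the BCL2 family. Mating was done six times.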

Parent scFv Ab-14: VH joined to VL by the linker GGGGSGGGGSGGGGS. Changes lie in the heavy chain CDRs alone.
VH: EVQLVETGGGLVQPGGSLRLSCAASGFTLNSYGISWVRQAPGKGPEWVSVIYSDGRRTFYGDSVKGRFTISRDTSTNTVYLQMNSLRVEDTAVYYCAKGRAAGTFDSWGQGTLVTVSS
VL: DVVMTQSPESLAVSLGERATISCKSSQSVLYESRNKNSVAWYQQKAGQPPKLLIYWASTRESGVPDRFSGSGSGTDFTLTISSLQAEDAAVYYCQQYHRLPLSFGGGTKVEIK

The whole VH of each variant is written out. Values are log10 of the apparent Kd in nM; lower means stronger binding. "nd" means that the variant was in the library but no mating with the target was seen in that replicate; the authors take this as a sign of poor binding, and no number exists. The authors' rule: three or more of the six replicates give a measured affinity, fewer mean a poor binder.

VH | log10 Kd, replicates | signal with controls
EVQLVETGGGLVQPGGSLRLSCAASGFDLNEYGISWVRQAPGKGPEWVSVIYADGRRTAYGDSVKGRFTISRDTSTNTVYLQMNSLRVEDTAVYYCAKGTNAGTFDQWGQGTLVTVSS | -0.15 0.23 -0.06 -0.28 -0.11 -0.04 | 1 of 18 (2.96)
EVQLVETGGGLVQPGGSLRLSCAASGFDLESYGISWVRQAPGKGPEWVSVIYADGSRTAYADSVKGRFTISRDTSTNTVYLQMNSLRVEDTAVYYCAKGNVAGTFDEWGQGTLVTVSS | -0.81 -0.70 -0.27 -1.23 -0.37 -0.71 | 0 of 18
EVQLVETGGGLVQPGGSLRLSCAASGFDLNEYGISWVRQAPGKGPEWVSVIYADGRRTFYADSVKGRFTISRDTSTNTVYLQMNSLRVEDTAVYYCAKGEGAGTFDIWGQGTLVTVSS | 1.01 0.86 1.48 0.36 2.27 1.57 | 0 of 18
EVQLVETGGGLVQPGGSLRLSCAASGFDLEDYGISWVRQAPGKGPEWVSVIYADGMRTAYIDSVKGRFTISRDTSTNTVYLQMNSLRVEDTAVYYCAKGEVAGTFDVWGQGTLVTVSS | 0.33 0.45 0.09 0.49 0.50 0.60 | 1 of 18 (1.83)
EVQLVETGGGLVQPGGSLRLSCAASGFDLNEYGISWVRQAPGKGPEWVSVIYADGMRTQYVDSVKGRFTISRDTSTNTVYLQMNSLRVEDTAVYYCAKGNVAGTFDVWGQGTLVTVSS | -0.58 -0.94 -0.84 -0.78 -0.90 -0.55 | 1 of 18 (1.74)
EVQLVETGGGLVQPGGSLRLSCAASGFDLNEYGISWVRQAPGKGPEWVSVIYADGQRTFYADSVKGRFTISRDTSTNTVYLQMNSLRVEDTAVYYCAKGNTAGTFDSWGQGTLVTVSS | -0.57 -0.28 -1.06 -1.45 -1.25 -0.96 | 0 of 18
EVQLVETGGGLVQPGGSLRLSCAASGFDLNEYGISWVRQAPGKGPEWVSVIYADGKRTFYSDSVKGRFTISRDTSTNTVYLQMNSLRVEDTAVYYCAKGQTGGTFDEWGQGTLVTVSS | 0.04 -0.38 -0.42 -0.17 -0.38 -0.06 | 0 of 18
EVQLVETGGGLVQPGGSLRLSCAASGFDLNEYGISWVRQAPGKGPEWVSVIYADGVRTFYSDSVKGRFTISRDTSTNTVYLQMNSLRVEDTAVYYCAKGAVAGTFDNWGQGTLVTVSS | -0.35 -0.28 -0.18 -0.39 -0.26 -0.05 | 0 of 18
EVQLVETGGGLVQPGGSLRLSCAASGFNLNEYGISWVRQAPGKGPEWVSVIYADGRRTAYTDDVKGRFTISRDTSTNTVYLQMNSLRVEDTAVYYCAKGEVAGTFDLWGQGTLVTVSS | -0.49 -0.53 -0.43 -0.59 -0.72 -0.52 | 1 of 18 (2.22)
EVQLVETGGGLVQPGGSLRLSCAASGFNLNEYGISWVRQAPGKGPEWVSVIYADGRRKFYADSVKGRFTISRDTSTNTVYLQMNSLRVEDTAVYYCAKGNTAGTFDIWGQGTLVTVSS | -0.61 -0.50 -1.26 -0.68 -0.94 -0.69 | 0 of 18
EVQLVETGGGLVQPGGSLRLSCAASGFDLNEYGISWVRQAPGKGPEWVSVIYADGRRTQYADSVKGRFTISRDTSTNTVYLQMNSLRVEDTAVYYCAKGEIAGTFDSWGQGTLVTVSS | nd nd nd nd nd nd | 1 of 18 (2.21)
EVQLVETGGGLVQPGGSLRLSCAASGFDLNEYGISWVRQAPGKGPEWVSVIYADGRRTFYLDSVKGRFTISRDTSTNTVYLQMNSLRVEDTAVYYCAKGQLAGTFDIWGQGTLVTVSS | -0.57 -0.90 -0.87 -0.88 -0.91 -0.54 | 0 of 18
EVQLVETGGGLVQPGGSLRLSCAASGFDLNEYGISWVRQAPGKGPEWVSVIYADGRRTAYADSVKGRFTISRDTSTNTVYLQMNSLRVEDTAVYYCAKGNNAGTFISWGQGTLVTVSS | 2.20 nd nd 1.76 1.51 1.71 | 1 of 18 (1.95)
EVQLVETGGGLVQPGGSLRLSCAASGFNLNEYGISWVRQAPGKGPEWVSVIYADGRRTFYADSVKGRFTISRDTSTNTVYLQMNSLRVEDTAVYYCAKGTQAGTFDMWGQGTLVTVSS | -0.49 -0.25 -0.16 -0.41 -0.26 -0.51 | 0 of 18

Empty control strains, which show no peptide, gave a signal in 1% of pairings with all heavy chain designs; the median was 2.08 and 95% of these signals were weaker than 0.84. No background was subtracted. For each scFv, signals with the empty controls are counted beside the result, with their mean in brackets. Values of this round are not directly comparable with the first-round values of the same sequences.

Values reported by Li et al. 2023, doi:10.1038/s41467-023-39022-2 (FLAb copy).